This is an account of results in PMC10257520 (Journal of medicinal chemistry, 2022).

One assay deals with DU-145 cells. As to conditions: single dose of 10 μM.
In a further assay the test system is NCI-H522 cells. As to conditions: SAHA 5 μM.

As for `C#Cc1nc(C(=O)NCCCCCCC(=O)NO)cs1` [HY-1, 2-Ethynyl-N-(7-(hydroxyamino)-7-oxoheptyl)thiazole-4-carboxamide], the “Growth %, DU-145” value with DU-145 cells is listed as −51.12%.
With `O=C(CCCCCCC(=O)Nc1ccccc1)NO` [SAHA], in the assay on NCI-H522 cells, the “Cell death after one-day treatment” value is listed as “about 30%”.
